Reference: patent US20020155995A1

Amino acid sequences for entries named in this document (tags omitted). Residues count along the entry.
UniProt Q86VB7, 42-1156: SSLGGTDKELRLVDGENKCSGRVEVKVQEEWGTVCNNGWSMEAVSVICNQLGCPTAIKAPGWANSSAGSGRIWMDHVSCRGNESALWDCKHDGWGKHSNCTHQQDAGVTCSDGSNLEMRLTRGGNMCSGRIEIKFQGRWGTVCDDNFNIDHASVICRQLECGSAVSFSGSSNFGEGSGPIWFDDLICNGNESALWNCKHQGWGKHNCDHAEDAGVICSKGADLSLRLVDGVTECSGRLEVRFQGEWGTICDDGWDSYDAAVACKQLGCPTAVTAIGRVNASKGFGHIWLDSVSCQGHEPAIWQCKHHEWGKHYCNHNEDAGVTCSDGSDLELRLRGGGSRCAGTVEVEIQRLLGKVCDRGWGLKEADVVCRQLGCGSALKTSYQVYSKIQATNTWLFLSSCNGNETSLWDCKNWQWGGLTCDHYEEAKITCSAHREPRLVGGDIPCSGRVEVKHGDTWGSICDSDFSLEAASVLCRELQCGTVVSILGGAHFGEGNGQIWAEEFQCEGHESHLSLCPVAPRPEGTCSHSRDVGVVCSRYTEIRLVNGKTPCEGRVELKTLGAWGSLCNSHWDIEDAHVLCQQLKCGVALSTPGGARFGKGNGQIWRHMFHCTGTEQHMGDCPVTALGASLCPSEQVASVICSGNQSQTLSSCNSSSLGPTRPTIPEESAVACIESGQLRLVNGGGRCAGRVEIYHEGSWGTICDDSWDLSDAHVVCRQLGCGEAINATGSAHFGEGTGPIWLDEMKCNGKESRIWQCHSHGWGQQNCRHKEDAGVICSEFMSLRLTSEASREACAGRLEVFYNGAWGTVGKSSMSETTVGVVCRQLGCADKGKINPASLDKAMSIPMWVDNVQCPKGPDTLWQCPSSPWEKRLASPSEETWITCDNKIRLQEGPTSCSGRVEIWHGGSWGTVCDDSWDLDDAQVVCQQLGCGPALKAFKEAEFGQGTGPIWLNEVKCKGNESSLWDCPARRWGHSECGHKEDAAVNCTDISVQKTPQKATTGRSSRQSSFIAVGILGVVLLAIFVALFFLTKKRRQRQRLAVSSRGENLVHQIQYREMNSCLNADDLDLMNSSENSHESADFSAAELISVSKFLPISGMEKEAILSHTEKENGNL

How the values were obtained:
[1] = target: human CD163, ligand-affinity purified from Triton X-100 solubilised human spleen, placenta and liver membranes (human) (UniProt Q86VB7); experiment: solid phase competition, 125I-Hp(1-1)-Hb on CD163 in microtiter wells
[2] = target: human CD163, ligand-affinity purified from Triton X-100 solubilised human spleen, placenta and liver membranes (human) (UniProt Q86VB7); experiment: apparent Kd from solid phase competition on CD163 in microtiter wells

“Hp(1-1)-Hb complex (dimeric haptoglobin-haemoglobin complex, Hb form A0) (from UniProt P00738 19-406)” was tested, and the IC50 [1] was 0.3 µg/mL and the Kd [2] was 2 nM.
